This assay has as its target T1, CCR2b (Homo sapiens, UniProt P41597).
T1 construct: host or cells: AequoScreen CCR2b cells
T1 sequence (P41597 1-360 isoform P41597-2): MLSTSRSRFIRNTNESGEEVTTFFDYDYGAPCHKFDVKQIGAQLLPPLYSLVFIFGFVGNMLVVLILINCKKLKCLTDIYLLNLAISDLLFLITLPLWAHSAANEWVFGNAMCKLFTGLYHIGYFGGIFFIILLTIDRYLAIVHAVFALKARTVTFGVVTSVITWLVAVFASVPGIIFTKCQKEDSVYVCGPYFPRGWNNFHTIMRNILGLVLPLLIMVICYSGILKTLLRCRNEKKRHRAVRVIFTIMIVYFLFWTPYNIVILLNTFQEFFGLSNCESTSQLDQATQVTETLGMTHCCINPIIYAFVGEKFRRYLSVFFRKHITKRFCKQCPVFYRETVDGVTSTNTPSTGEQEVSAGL
Description: AequoScreen CCR2b calcium flux assay, antagonist mode against reference agonist MCP-1. The following applies: AequoScreen CCR2b (FAST-060A) cells; inhibition of reference agonist MCP-1 at its EC80; read-out: IC50 (μM) Ca^++flux. It counts as cell-based. The method, then: The biological activity of the compounds described herein can be evaluated using assays known in the art, such as the AequoScreen™ assay.
AequoScreen™ CCR2b (FAST-060A) cells grown to mid-log phase in culture media without antibiotics are detached with PBS-EDTA, centrifuged and resuspended in assay buffer (DMEM/HAM's F12 with HEPES, without phenol red+0.1% BSA protease free) at a concentration of 1×10^6 cells/mL. Cells are incubated at room temperature for at least 4 hours with coelenterazine h. Dose response curves are performed before testing. The reference agonist is MCP-1.
For agonist testing, 50 μL of cell suspension is mixed with 50 μL of test compound in a 96-well plate. The resulting emission of light is recorded using a Hamamatsu Functional Drug Screening System 6000 (FDSS 6000).
Following an incubation of 15 minutes after the first injection, 100 μL of the resulting cell suspension containing the test compound is mixed with 100 μL of the reference agonist in the 96 well test plate. The resulting emission of light is recorded using the same luminometer as for agonist testing.
Agonist activity of a test compound can be expressed as a percentage of the activity of the reference agonist at its EC100 concentration. Antagonist activity of a test compound can be expressed as a percentage of the inhibition of reference agonist activity at its EC80 concentration.
On the technique in general: Calcium flux is commonly read through the fluorescence of an indicator in the cells.

The IC50 is the concentration that gives 50% inhibition.

Bounds are passed on as bounds.

Consider “6-((3-(Methoxymethyl)-3-(3-(trifluoromethyl)-5,6,7,8-tetrahydro-1,6-naphthyridine-6-carbonyl)pyrrolidin-1-yl)methyl)-3,5-dimethylbenzo[d]oxazol-2(3H)-one [Example 44]”, for which the IC50 is less than 0.2 µM.

These data come from patent publication US20100286136A1, “DIHYDRONAPHTHYRIDINYL AND RELATED COMPOUNDS FOR USE IN TREATING OPHTHALMOLOGICAL DISORDERS” (priority 2009, published 2010).
